These results are taken from PubChem BioAssay AID720647 (Broad Institute, 2013).

The list shows a part of the results, in another mix than the full data. Activity calls are given as the source filed them.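 Rule for the calls: active = drop in luminescence signal, shown as inhibition above about 50% in the replicate tests (limit read from the data, passing the limit was not always enough); inconclusive = probably only some replicates passing the limit; inactive = the rest.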

The assay concerns Drosophila bursicon receptor LGR2 (rickets). Description: LGR2 cAMP reporter signal reduction – cell-based, HEK293, CRE-luciferase reporter, bursicon stimulation, primary screen (AID 720647).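 Note: agonist challenge used bursicon conditioned medium at about half maximal strength.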 The following applies: bursicon-stimulated, 4 h, at 9.99 µM, stronger effect = higher value.
In the case of `O=C(O)C(O)c1ccc(N(CCCl)CCCl)cc1` (stereo not given), the inhibition (commonly the change of the read-out against control, counted positive when it falls) was inactive: -6.65%.
With `CCOC(=O)Nc1ccc([As](=O)(O)O)c(O)c1` the figure was inactive: -8.19%; with `CC1CCNP(=O)(N(CCCl)CCCl)O1` (stereo not given), inactive: -28.5%; with `COP(=O)(OC)N1CC1c1ccccc1` (stereo not given), inactive: -1.71%.
The same measure for `Cc1cc(SC(NC(=O)c2ccccc2)C(Cl)(Cl)Cl)nc(C(C)C)n1` (stereo not given): inactive: -2.74%; for `CCCCOc1ccc(C(=O)NCC2(N3CCCCC3)CCCCC2)cc1OC`: inactive: 2.15%; for `CCOC(=O)Nc1cccc([As](=O)(O)O)c1`: inactive: 1.01%.
For the compound `Cc1cc(SC(NC=O)C(Cl)(Cl)Cl)ncn1` (stereo not given), the inhibition was inactive: 3.8%.
Consider `O=P(Nc1ccccn1)(c1cccc2ccccc12)c1cccc2ccccc12`, for which the inhibition was inactive: 5.32%.
Take `O=[N+]([O-])c1ccc(Nc2ccc(Oc3ccc([N+](=O)[O-])cc3[N+](=O)[O-])cc2)c([N+](=O)[O-])c1`: the inhibition was inactive: 2.08%.
Consider `COC(=O)C1(C)COP(=O)(N2CCCC2)OC1` (stereo not given), for which the inhibition is inactive: -4.63%.
In the case of `COP1(=S)c2c(C)nn(CCC#N)c2N=C(c2ccc(F)cc2)N1C` (stereo not given), the inhibition is inactive: 12.4%.
Take `O=C(O)C(=O)c1ccc(N(CCCl)CCCl)cc1`: the inhibition is inactive: 3.53%.
On to `O=C(Nc1ccncc1[N+](=O)[O-])c1ccc([N+](=O)[O-])cc1[N+](=O)[O-]`, for which the inhibition is inactive: 12.4%.
With `O=C(OC1CN2CCC1CC2)c1cccc([N+](=O)[O-])c1` (stereo not given) the figure was inactive: -5.83%; with `CCOC(=O)c1ccc(NC(=O)C(C)(CCl)SC)cc1` (stereo not given), inactive: 12.5%; with `Cc1c2c(nc3ccccc13)SC(C(Cl)Cl)C2` (stereo not given), inactive: 9.49%.
For `Cc1cc(=O)[nH]c(N[N+](=O)[O-])n1`, the inhibition is inactive: 19.7%.
With `O=P1(N(CCCl)CCCl)OCCCN1CCCl` (stereo not given) the figure was inactive: 11.6%; with `O=P1(N(CCCl)CCCl)Nc2ccccc2N1`, inactive: -39.9%; with `COc1cc(I)ccc1[As](=O)(O)O`, inactive: -10%.
Regarding `O=[N+]([O-])c1cc(Oc2ccc([N+](=O)[O-])cc2C(F)(F)F)cc([N+](=O)[O-])c1`, the inhibition is inactive: -6.2%.
Consider `COc1ccc(N/C(=N/P(=O)(N2CCOCC2)N2CCOCC2)N2CCOCC2)cc1`, for which the inhibition is inactive: 0.311%.
With `O=[N+]([O-])c1ccc(-c2cc([N+](=O)[O-])c(O)c([N+](=O)[O-])c2)cc1`, the inhibition is inactive: 2.28%.
In the case of `COc1cc(C(=O)NCC2(N3CCOCC3)CCCCC2)ccc1OCC(C)C`, the inhibition was inactive: -12.9%.
For the compound `C[As](=O)(O)c1cccc(C(=O)O)c1`, the inhibition is inactive: -14%.
The same measure for `O=[As](O)(c1ccc(O)cc1)c1ccccc1O`: inactive: 2.93%; for `Cc1ccc(OP(=O)(Nc2ccc([N+](=O)[O-])cn2)Oc2ccc(C)cc2)cc1`: inactive: 2.41%.
The same measure for `[N-]=[N+]=NC1CCCCC1NC(=O)c1cc([N+](=O)[O-])cc([N+](=O)[O-])c1` (stereo not given): inactive: -12%.
With `COC(=O)C1(C)COP(=O)(N2CCCCCC2)OC1` (stereo not given) the figure was inactive: -4.43%; with `CC(C)c1ccc(OP(=O)(Nc2ccccn2)Oc2ccccc2F)cc1` (stereo not given), inactive: 4.45%; with `CC(C)NC(=O)NP(=O)(Oc1ccccc1)Oc1ccccc1`, inactive: -5.45%.
In the case of `O=P(Nc1nccs1)(Oc1ccccc1)Oc1ccccc1`, the inhibition was inactive: 4.5%.
Consider `CCOP1(=S)c2c(C)nn(CCC#N)c2N=C(c2ccccc2F)N1C` (stereo not given), for which the inhibition was inactive: -2.57%.
Take `O=C(O)COc1ccc([As](=O)(O)O)cc1[N+](=O)[O-]`: the inhibition was inactive: 8.98%.
With `Nc1ccccc1[As](=O)(O)c1ccccc1` the figure was inactive: 15%; with `NC(=O)Nc1ccc([As](=O)(O)O)cc1`, inactive: -2.34%; with `CCOP1(=S)c2c(C)nn(CCC#N)c2N=C(c2ccc(F)cc2)N1C` (stereo not given), inactive: 4.4%.
Regarding `N#CCCN(C(=O)COC(=O)C(O)(c1ccccc1)c1ccccc1)c1ccc(F)cc1`, the inhibition is inactive: 2.08%.
With `CN(C(=O)Cc1ccc(Cl)c(Cl)c1)[C@H]1CC[C@@]2(CCCO2)C[C@@H]1N1CCCC1` the figure was inactive: 0.056%.
With `CN(C)C(=O)c1cc([N+](=O)[O-])cc2c1-c1c(cc([N+](=O)[O-])cc1[N+](=O)[O-])C2=O` the figure was active: 99%.
With `O=C(OC1CN2CCC1CC2)c1ccc(Cl)cc1` (stereo not given), the inhibition is inactive: 1.3%.
The same measure for `CS(=O)(=O)c1ccc(Cl)c(NC(=O)COC(=O)C(O)(c2ccccc2)c2ccccc2)c1`: inactive: 0.651%.
The same measure for `O=[As](O)(O)c1cccnc1`: inactive: -5.27%; for `COc1cc(C(=O)NCC2(N3CCOCC3)CCCCC2)cc(Cl)c1OC(C)C`: inactive: 8.88%.
`Cc1cccc(OCC(=O)OC2CN3CCC2CC3)c1` (stereo not given): the inhibition is inactive: 11.7%.
With `O=[As](O)(c1cccc(O)c1)c1cccc(O)c1` the figure was inactive: 1.39%; with `Nc1cccc2c([As](=O)(O)O)cccc12`, inactive: -0.13%; with `Cc1ccc(NCCc2c([N+](=O)[O-])cc([N+](=O)[O-])cc2[N+](=O)[O-])cc1`, inactive: -22.5%.
For `CCCOP(=S)(Nc1nc(N)cc(=O)[nH]1)OCCC`, the inhibition was inactive: 24.3%.
Consider `CCOP(=O)(Nc1cccc2ccccc12)OCC`, for which the inhibition is inactive: -1.37%.
With `COc1cc(C2NCCC3(OCCO3)C2(C)C)cc(OC)c1OC` (stereo not given) the figure was inactive: 4.81%.
As to `CCOP(=O)(NC(=NC(C)c1ccccc1)NC(C)c1ccccc1)OCC` (stereo not given), the inhibition is inactive: -3.45%.
With `CCC1=CC2Cc3nc4ccc(Cl)cc4c(N)c3C(C1)C2` (stereo not given) the figure was inactive: 22.8%.
Regarding `CCOP(=O)(Nc1ccc(C)cn1)OCC`, the inhibition was inactive: 7.81%.
As for `CN(CCCl)Cc1cc(Cl)c(NC2=NCCN2)c(Cl)c1`, the inhibition is inactive: 6.3%.
In the case of `CC(C)(C)C(=O)NC(Sc1ncccn1)C(Cl)(Cl)Cl` (stereo not given), the inhibition was inactive: 0.449%.
The same measure for `O=P1(N(CCCl)CCCl)NCCC(C(F)(F)F)O1` (stereo not given): inactive: 13.6%; for `COc1ccccc1CNC(=O)COC(=O)C(O)(c1ccccc1)c1ccccc1`: inactive: -2.01%.
For the compound `CN(C(=O)Cc1ccc(Cl)c(Cl)c1)C1CCCC[C@@H]1N1CCCC1` (stereo not given in full), the inhibition was inactive: 3.72%.
For `CN(C(=O)Cc1ccc(Cl)c(Cl)c1)[C@@H]1CCCC[C@H]1N1CCCC1`, the inhibition is inactive: -3.14%.
With `CC(C)/C=N\N=C(\N)N[N+](=O)[O-]` the figure was inactive: 18%; with `Cc1ccc(C(=O)OC2CN3CCC2CC3)cc1` (stereo not given), inactive: -3.09%.
With `CC1CCC(C(C)C)C(OP(=O)(Nc2ccccn2)c2ccccc2)C1` (stereo not given) the figure was inactive: 16.2%.
With `CN(C)C1(CNC(=O)c2ccc(S(C)(=O)=O)cc2)CCCCC1` the figure was inactive: -1.82%.
Consider `CCCC1OP(=O)(Nc2ccccc2)OCC1CC` (stereo not given), for which the inhibition was inactive: -0.685%.
On to `O=C(/C=C/c1ccccc1)OC1CN2CCC1CC2` (stereo not given), for which the inhibition was inactive: -12.3%.
`Cc1ccc(S(=O)(=O)N(CCCN)CCCc2c(C)nc(N)[nH]c2=O)cc1`: the inhibition was inactive: -3.03%.
The same measure for `Nc1cccc([As](=O)(O)c2ccccc2)c1`: inactive: -2.25%.
With `O=[As](O)(c1cccs1)c1cccs1` the figure was inactive: 20.7%.
With `NS(=O)(=O)c1cccc(NC(=O)COC(=O)C(O)(c2ccccc2)c2ccccc2)c1` the figure was inactive: 6.87%.
`CN(C)C1(CNC(=O)c2ccc(Cl)c(S(N)(=O)=O)c2)CCCCC1`: the inhibition is inactive: -5.47%.
The same measure for `O=P(Nc1ccccn1)(c1ccc(Br)cc1)c1ccc(Br)cc1`: inactive: 13%; for `COc1ccc(N)c([N+](=O)[O-])c1[N+](=O)[O-]`: inactive: -10.8%.
With `Nc1ccc(CCCCOc2ccccc2)cc1` the figure was inactive: -45.1%.
For `C[C@H]1OP(=O)(Oc2ccccc2)[C@H](O)[C@H](O)[C@H]1N=[N+]=[N-]` (stereo not given in full), the inhibition is inactive: -0.866%.
With `O=P(Nc1nc2ccccc2s1)(c1ccccc1)c1ccccc1` the figure was inactive: 1.01%.
In the case of `O=[As](O)(c1ccccc1)c1ccc(O)cc1`, the inhibition is inactive: -17.8%.
`O=[N+]([O-])c1ncn(CCn2cnc([N+](=O)[O-])n2)n1`: the inhibition was inactive: -4.91%.
Turning to `CC(=O)NC(SC(=S)N(C)C)C(Cl)(Cl)Cl` (stereo not given), the inhibition was inactive: 3.73%.
Turning to `C(Cc1nn[nH]n1)Cc1nn[nH]n1`, the inhibition was inactive: 5.28%.
As to `Nc1ccc([As](=O)(O)c2ccc([N+](=O)[O-])cc2)cc1`, the inhibition is inactive: 8.09%.
With `C/C(N)=N\P(=O)(OCc1ccccc1)OCc1ccccc1` the figure was inactive: 6.27%; with `CC(C)C(=O)NC(Sc1ccccc1)C(Cl)(Cl)Cl` (stereo not given), inactive: 14.4%; with `CCOc1ccc(C2=NCC(CBr)S2)cc1` (stereo not given), inactive: -8.11%.
For `CC(C)(C)C(=O)NC(Sc1ccccc1)C(Cl)(Cl)Cl` (stereo not given), the inhibition is inactive: -1.94%.
Consider `CCc1cc(O)c([N+](=O)[O-])c(C)c1[N+](=O)[O-]`, for which the inhibition was inactive: -2.98%.
The same measure for `C[C@H]1OP(=O)(Oc2ccccc2)C[C@@H]2O[C@@H]21` (stereo not given in full): inactive: 1.14%; for `Cc1ccccc1CN(C)C(=O)COC(=O)C(O)(c1ccccc1)c1ccccc1`: inactive: 10.2%.
The same measure for `COC(=O)C1(C)COP(=O)(NCc2ccccc2)OC1` (stereo not given): inactive: 3.45%.
As to `CC(=O)c1ccc(N2CC2c2ccncc2)cc1` (stereo not given), the inhibition was inactive: 2.72%.
The same measure for `N#C/C(=C\c1ccc(N(CCBr)CCBr)cc1)C(N)=O`: inactive: -19%.
Turning to `CC(=O)Nc1ccc([As](=O)(O)O)c(O)c1`, the inhibition was inactive: -2.14%.
With `c1ccc(-c2nn[nH]n2)c(-c2nn[nH]n2)c1` the figure was inactive: 9.09%; with `O=C(NC1CCS(=O)(=O)C1)NP(=S)(Oc1ccccc1)Oc1ccccc1` (stereo not given), inactive: -32%.
Take `CCNC(=S)/N=C(\N)N[N+](=O)[O-]`: the inhibition was inactive: 6.81%.
With `O=P1(N(CCCl)CCCl)OCCC2CCCCN21` (stereo not given) the figure was inactive: -20.9%.
Take `O=C(OC1CN2CCC1CC2)c1ccccc1` (stereo not given): the inhibition is inactive: -15.1%.
In the case of `Cc1ccc(OP(=O)(Nc2ccccn2)Oc2ccc(C)cc2)cc1`, the inhibition is inactive: 4.32%.
With `CC(=O)NC(SC(=S)N(CC(C)C)CC(C)C)C(Cl)(Cl)Cl` (stereo not given) the figure was inactive: 3.62%.
